# Reference: PubChem BioAssay AID602123 (The Scripps Research Institute Molecular Screening Center, 2011)
# Chains of the proteins cited; added tags and fusions are not shown.
# UniProt P0A9M0, whole entry: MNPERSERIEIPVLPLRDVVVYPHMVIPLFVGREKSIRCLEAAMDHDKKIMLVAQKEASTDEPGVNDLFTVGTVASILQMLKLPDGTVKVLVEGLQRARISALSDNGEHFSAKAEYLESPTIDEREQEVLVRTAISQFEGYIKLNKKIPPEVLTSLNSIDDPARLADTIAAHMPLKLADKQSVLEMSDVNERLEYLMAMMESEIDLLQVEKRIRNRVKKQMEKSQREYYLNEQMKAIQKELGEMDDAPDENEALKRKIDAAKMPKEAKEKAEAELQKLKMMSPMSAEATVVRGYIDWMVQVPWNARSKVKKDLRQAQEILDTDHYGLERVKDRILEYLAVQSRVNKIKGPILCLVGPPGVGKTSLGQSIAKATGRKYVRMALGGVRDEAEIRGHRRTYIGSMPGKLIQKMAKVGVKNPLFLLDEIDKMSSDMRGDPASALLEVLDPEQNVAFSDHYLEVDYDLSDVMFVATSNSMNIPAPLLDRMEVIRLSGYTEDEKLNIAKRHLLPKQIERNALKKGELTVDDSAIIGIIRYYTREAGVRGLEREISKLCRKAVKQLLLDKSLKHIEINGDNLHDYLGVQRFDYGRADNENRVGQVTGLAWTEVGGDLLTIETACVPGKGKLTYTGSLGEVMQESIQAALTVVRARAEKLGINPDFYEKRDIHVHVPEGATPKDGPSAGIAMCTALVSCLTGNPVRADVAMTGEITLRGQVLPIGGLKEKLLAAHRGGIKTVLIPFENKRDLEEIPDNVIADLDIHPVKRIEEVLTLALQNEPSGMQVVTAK
# This is a selection; strong and weak results do not stand in their true shares. The source made the active and inactive calls. Rule as the data show it: active = inhibition above about 13% (passing the limit was not always enough); inactive = the rest.
# Biological target: Lon protease (Escherichia coli (strain K12)) (UniProt P0A9M0)
# Test: E. coli eLon protease inhibition – biochemical, fluorescence polarization, primary screen (AID 602123);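 also: 0% = enzyme with probe and DMSO and 100% = no enzyme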
# Details: purified E. coli Lon protease, at 7.94 µM, active compounds read high
row,Structure (SMILES),inhibition
1,CCC(=O)N(c1ccccc1)C1(COC)CCN(CCn2nnn(CC)c2=O)CC1,inactive: -7.85%
2,CCC(=O)N(c1ccccc1)C1(COC)CCN(CCc2cccs2)CC1,inactive: -9.88%
